The values below come from BindingDB's records for doi:10.1016/s0960-894x(98)00284-4 (Glaxowellcome, 1998).

The target of this test is Glutamate receptor ionotropic, NMDA 1 (Rattus norvegicus, UniProt P35439). The test is described as follows: ChEBML_140329. Here is the method:
In vitro affinity of compound for the glycinergic site associated with NMDA receptor was assessed by inhibition of the binding of [3H]glycine

As for `O=C(/C=C/c1c(C(=O)O)[nH]c2cc(Cl)cc(Cl)c12)Nc1ccccc1` [GV-150526X], the Ki (in general, a measure of affinity in units of concentration, obtained from inhibition or displacement) was found to be 8.5 nM.
